Consider 1 molecule from ChEMBL document CHEMBL1833804, “Discovery of N-(3-(1-methyl-1,2,3,6-tetrahydropyridin-4-yl)-1H-indol-6-yl) thiophene-2-carboximidamide as a selective inhibitor of human neuronal nitric oxide synthase (nNOS) for the treatment of pain” (J Med Chem, 2011).

The chains behind the UniProt entries cited, without tags or fusion partners.
UniProt P29475, whole entry, looked up: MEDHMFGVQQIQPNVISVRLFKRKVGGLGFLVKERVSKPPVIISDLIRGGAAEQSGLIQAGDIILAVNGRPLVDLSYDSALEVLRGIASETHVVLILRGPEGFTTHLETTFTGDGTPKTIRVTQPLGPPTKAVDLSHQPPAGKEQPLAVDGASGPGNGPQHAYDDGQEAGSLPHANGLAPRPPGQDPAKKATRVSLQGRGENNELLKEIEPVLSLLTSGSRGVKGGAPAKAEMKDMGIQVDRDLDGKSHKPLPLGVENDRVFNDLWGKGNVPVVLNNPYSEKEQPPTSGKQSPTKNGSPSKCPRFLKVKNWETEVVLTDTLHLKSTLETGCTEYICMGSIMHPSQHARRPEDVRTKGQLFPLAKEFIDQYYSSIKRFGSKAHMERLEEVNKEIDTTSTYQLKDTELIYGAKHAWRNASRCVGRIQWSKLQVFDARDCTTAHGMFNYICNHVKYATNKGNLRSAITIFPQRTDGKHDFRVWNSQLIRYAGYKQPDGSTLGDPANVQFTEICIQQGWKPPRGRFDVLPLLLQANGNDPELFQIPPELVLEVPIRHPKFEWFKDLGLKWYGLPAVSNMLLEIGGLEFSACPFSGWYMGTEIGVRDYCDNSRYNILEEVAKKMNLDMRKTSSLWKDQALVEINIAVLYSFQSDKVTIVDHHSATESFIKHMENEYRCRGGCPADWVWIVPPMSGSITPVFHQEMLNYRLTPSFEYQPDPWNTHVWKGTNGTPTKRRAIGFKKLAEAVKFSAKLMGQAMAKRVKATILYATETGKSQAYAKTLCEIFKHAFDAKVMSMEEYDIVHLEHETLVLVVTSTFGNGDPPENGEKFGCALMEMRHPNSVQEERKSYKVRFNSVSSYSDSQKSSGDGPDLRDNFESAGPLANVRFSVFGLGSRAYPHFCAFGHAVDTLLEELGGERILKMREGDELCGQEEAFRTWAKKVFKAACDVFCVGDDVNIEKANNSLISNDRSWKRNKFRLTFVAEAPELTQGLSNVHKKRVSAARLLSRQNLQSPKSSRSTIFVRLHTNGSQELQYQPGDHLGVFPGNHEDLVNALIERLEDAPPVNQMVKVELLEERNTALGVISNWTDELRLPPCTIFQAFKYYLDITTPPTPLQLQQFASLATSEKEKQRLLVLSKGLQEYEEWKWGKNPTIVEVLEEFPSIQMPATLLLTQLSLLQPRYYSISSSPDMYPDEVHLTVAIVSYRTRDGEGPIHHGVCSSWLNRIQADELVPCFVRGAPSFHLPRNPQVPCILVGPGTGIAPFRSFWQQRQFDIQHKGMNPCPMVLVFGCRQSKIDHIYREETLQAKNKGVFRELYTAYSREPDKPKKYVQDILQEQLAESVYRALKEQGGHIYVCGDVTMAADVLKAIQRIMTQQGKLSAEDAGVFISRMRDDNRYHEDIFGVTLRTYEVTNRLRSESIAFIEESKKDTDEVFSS
UniProt P35228, whole entry, looked up: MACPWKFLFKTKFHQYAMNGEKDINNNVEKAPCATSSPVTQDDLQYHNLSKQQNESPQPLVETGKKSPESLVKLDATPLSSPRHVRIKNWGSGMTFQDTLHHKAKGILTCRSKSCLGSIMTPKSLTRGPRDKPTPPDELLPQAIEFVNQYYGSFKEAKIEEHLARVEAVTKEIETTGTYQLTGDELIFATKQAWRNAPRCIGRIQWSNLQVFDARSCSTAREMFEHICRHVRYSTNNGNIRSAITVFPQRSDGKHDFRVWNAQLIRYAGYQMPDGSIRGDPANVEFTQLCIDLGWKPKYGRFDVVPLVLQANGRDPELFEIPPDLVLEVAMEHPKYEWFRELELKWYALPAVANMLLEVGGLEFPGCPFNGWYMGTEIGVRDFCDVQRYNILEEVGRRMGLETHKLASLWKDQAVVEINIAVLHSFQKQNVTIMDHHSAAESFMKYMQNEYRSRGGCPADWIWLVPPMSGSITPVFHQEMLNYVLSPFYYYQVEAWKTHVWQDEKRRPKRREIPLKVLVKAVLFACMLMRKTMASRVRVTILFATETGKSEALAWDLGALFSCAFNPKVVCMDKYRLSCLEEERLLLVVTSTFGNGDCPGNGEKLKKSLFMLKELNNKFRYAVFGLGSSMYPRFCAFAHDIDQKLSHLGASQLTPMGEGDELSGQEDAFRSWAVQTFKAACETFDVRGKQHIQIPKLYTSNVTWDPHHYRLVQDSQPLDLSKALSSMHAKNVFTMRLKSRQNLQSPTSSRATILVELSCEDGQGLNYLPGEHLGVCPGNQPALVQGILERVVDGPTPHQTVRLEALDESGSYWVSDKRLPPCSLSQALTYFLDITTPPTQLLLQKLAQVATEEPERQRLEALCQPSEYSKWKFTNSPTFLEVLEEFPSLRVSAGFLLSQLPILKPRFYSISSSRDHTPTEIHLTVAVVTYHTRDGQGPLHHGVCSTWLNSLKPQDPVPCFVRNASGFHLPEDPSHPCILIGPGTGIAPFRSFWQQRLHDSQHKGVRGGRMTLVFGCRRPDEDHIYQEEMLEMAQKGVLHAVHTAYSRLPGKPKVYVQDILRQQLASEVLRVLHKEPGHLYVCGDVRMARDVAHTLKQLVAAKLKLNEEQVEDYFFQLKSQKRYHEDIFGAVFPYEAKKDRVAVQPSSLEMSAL

Assay [1] concerns the target Nitric oxide sythases; iNOS & nNOS (Homo sapiens) (UniProt P29475+P35228). Nature of the assay: Selectivity ratio of IC50 for human recombinant iNOS to IC50 for human recombinant nNOS. The procedure, abridged: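 Recombinant human nNOS and iNOS were expressed in baculovirus-infected Sf9 cells, and the assay measured [³H]-L-arginine to [³H]-L-citrulline conversion. nNOS buffer: 40 mM HEPES pH 7.4 with CaCl₂, MgCl₂, BSA, 1 mM NADPH and 1.2 μM CaM. iNOS buffer: 100 mM HEPES pH 7.4 with 120 μM NADPH and 100 nM CaM. Compound was preincubated 15 min at RT, then reacted 45 min at 37 °C. Citrulline was separated on DOWEX and counted by scintillation, in duplicate. The ratio is IC50 iNOS/IC50 nNOS.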

The species entered for a further assay is Homo sapiens. Nature of the assay: Selectivity ratio of IC50 for human recombinant eNOS to IC50 for human recombinant nNOS.

Take `CNC(=N)NCCC[C@H](N)C(=O)O.Cl.Cl`: the Ratio IC50 in assay [1] came to 2; in the assay filed under Homo sapiens, 0.7.
